Values of other authors, collected in patent US20120134978A1, “Cross-Linking of Superoxide Dismutase Monomers” (Brandeis University, priority 2009, published 2012).

Test system: mice
Conditions: cited from earlier work

In the case of `O=C(CBr)CBr`, the “toxicity (LD50)” value is given as 3000 mg/kg.
